Source: patent publication US20130183268A1, “DRUG COMBINATIONS WITH FLUORO-SUBSTITUTED OMEGA-CARBOXYARYL DIPHENYL UREA FOR THE TREATMENT AND PREVENTION OF DISEASES AND CONDITIONS” (BAYER HEALTHCARE LLC, priority 2010, published 2013)

Test: Metabolite profile, incubation of [14C]regorafenib with liver microsomes (dog)
Format: in vitro ADME, Beagle dog
Conditions: [14C]regorafenib 20 μM, liver microsomes 0.5 mg/mL, 60 min
Description: N-oxide (M-2), hydroxymethyl (M-3), de-methylated (M-4) and N-oxide-demethylated (M-5) metabolites of the fluoro-substituted diaryl urea of Formula (I) are shown below. They were identified as metabolites of regorafenib in vitro upon incubation with liver enzymes of various mammalian species (man, dog, rat, mouse). Studies reveal that its metabolites show high protein binding in man and animal species (data not shown). [table]

For `CNC(=O)c1cc(Oc2ccc(NC(=O)Nc3ccc(Cl)c(C(F)(F)F)c3)c(F)c2)ccn1` [Example 1, 4{4-[3-(4-chloro-3-trifluoromethylphenyl)-ureido]-3-fluorophenoxy}-pyridine-2-carboxylic acid methylamide], the “% of radioactivity, Beagle dog” value was 70.8%.
